{"source": "paper PMC9354565", "about": "(The journal of physical chemistry. B, 2022)", "key": {"[1]": {"target": "T1, ST2/IL33 binding (Homo sapiens, UniProt Q01638)", "T1 sequence (Q01638 19-328 isoform Q01638-2 limits assumed)": "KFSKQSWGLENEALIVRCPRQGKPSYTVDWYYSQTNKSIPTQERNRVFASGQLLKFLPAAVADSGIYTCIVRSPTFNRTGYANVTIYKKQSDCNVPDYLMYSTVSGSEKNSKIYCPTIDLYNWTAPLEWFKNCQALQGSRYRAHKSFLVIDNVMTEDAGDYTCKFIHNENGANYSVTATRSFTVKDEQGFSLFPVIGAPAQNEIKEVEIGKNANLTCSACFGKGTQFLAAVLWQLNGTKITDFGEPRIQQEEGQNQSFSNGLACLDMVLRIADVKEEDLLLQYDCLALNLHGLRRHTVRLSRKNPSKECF", "test": "ST2/IL33 HTRF competitive inhibition assay, anti-Fc donor beads"}, "[2]": {"target": "T1, ST2/IL33 binding", "test": "ST2/IL33 HTRF competitive inhibition assay, anti-Histag donor beads", "conditions": "for inhibition of ST2/IL33 binding (in words): anti-Histag donor beads, highest concentration 30 mM"}, "[3]": {"target": "T1, ST2/IL33 binding", "conditions": "two concentrations, 1 and 10 mM; Figure 9A"}}}
{"smiles": "NCc1cccnc1", "note": "[AMP, 3-(aminomethyl)pyridine]", "values": [{"measurement": "IC50", "setting": "[1]", "value": "> 30", "unit": "mM"}, {"measurement": "inhibition of ST2/IL33 binding (in words)", "setting": "[2]", "value": "no inhibition activity"}]}
{"smiles": "N=C(N)c1ccccc1", "note": "[BZA, benzamidine]", "values": [{"measurement": "IC50", "setting": "[2]", "value": 8.75, "unit": "mM"}]}
{"smiles": "O=C(O)c1ccc(F)cc1O", "note": "[Compound 2]", "values": [{"measurement": "inhibition in initial screening of SA analogs", "setting": "[3]", "value": "exhibited inhibition"}]}
{"smiles": "O=C(O)c1cc(F)ccc1O", "note": "[Compound 3]", "values": [{"measurement": "inhibition in initial screening of SA analogs", "setting": "[3]", "value": "exhibited inhibition"}]}
{"smiles": "O=C(O)c1ccc(Br)cc1O", "note": "[Compound 4]", "values": [{"measurement": "inhibition in initial screening of SA analogs", "setting": "[3]", "value": "exhibited inhibition"}]}
{"smiles": "O=C(O)c1cc(Br)ccc1O", "note": "[Compound 5]", "values": [{"measurement": "inhibition in initial screening of SA analogs", "setting": "[3]", "value": "exhibited inhibition"}]}
{"smiles": "O=C(c1ccccc1)C(F)(F)F", "note": "[Compound 6]", "values": [{"measurement": "inhibition in initial screening of SA analogs", "setting": "[3]", "value": "abolished the activities"}]}
{"smiles": "COc1ccccc1C(=O)C(F)(F)F", "note": "[Compound 7]", "values": [{"measurement": "inhibition in initial screening of SA analogs", "setting": "[3]", "value": "abolished the activities"}]}
{"smiles": "O=C(O)c1cccnc1", "note": "[NA, nicotinic acid]", "values": [{"measurement": "decrease of the IC50 value with Fc donor beads vs anti-Histag donor beads", "setting": "[1]; Fc donor beads vs anti-Histag donor beads", "value": 2.8, "unit": "fold"}, {"measurement": "IC50", "setting": "[2]", "value": 5.89, "unit": "mM"}]}
{"smiles": "NC(=O)c1cccnc1", "note": "[NAM, nicotinamide]", "values": [{"measurement": "IC50", "setting": "[1]", "value": "> 30", "unit": "mM"}, {"measurement": "inhibition of ST2/IL33 binding (in words)", "setting": "[2]", "value": "some inhibitory activity only at 30 mM"}]}
{"smiles": "O=C(O)c1ccccc1O", "note": "[SA, salicylic acid]", "values": [{"measurement": "IC50", "setting": "[2]", "value": 2.47, "unit": "mM"}]}
